AlphaSeq binding of Ab-14 light chain variants to a spike HR2 peptide

Data: MIT Lincoln Laboratory AlphaSeq set, Engelhart et al. 2022, doi:10.1038/s41597-022-01779-4, as distributed in FLAb.

Binding partner: SARS-CoV-2 spike HR2 peptide, sequence PDVDLGDISGINAS.

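The parent was found by panning a naive human phage display library on the peptide. The library (AAYL50) carries one to three amino acid substitutions per variant, with no insertions or deletions. The scFvs were displayed on barcoded MATa yeast, the peptide on MATalpha yeast. After mating in shaken culture at 30 °C for 16 h, diploids were selected and their barcode pairs sequenced. The ratio of observed to expected reads was calibrated, replicate by replicate, on BCL2-family standards whose Kd was known from biolayer interferometry. The assay was run in three technical replicates.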

Parent scFv Ab-14: VH joined to VL by a (GGGGS)3 linker. Changes lie in the light chain CDRs alone.
VH: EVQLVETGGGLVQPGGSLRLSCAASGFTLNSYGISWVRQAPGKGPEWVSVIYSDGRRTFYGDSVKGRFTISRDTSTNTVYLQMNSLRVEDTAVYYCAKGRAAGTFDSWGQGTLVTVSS
VL: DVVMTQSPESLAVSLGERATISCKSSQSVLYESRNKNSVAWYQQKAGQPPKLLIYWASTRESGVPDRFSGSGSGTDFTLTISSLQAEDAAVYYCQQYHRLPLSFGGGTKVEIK

The parent's light chain CDRs are KSSQSVLYESRNKNSVA, WASTRES, QQYHRLPLS; each variant's own CDRs replace them letter for letter. Scale: log10 of Kd in nM, estimated from mating counts; low values are strong binders. Where no diploid with the target was found in that replicate, the entry reads "n.d.": below detection, most likely a poor binder, though not proof of it.

CDR-L1	CDR-L2	CDR-L3	log10 Kd, replicates	empty controls
KSSQLVLYESRNKNSVA	WASTRES	SQYHRLPLS	3.41 3.29 n.d.	1 of 9 (4.18)
TSSQSVLYESRNKNSVA	WASTRES	QQYSRLPLV	2.10 2.78 2.34	0 of 9
KSSQSVLYESVNKNSVA	WASTRES	YQYHRLPCS	0.37 0.59 0.55	2 of 9 (5.39)
KSSQSVLYESRSKNKEA	WASTRES	QQYHRLPLS	n.d. 4.04 n.d.	2 of 9 (3.66)
KSSQSVLYESRNCNLVA	WASTRES	QQYHREPLS	n.d. n.d. n.d.	1 of 9 (4.42)
KDSQSVLHESRNKNSVA	WASTRES	QYYHRLPLS	1.57 1.49 1.73	4 of 9 (5.13)
KSSQSVLYESRNANSVA	WASTRES	QQRHRYPLS	n.d. n.d. n.d.	4 of 9 (4.82)
KSSESVLYESRNNNSVA	WASTRES	QQYHRLPLS	3.49 2.58 3.57	3 of 9 (4.64)
KSSQSVLYESNNKNSVA	WASTRES	QQYHRLPWS	n.d. n.d. n.d.	3 of 9 (3.90)
KSSQSVLYKSKNKNSVA	WASTPES	QQYHRLPLS	2.11 n.d. 3.08	2 of 9 (3.63)
KSSHSVLYESRNKNSVA	WASTRES	QQMHRIPLS	n.d. 3.73 4.70	6 of 9 (4.70)
KSSQSVLKNSRNKNSVA	EASTRES	QQYHRLPLS	-0.43 0.07 -0.24	0 of 9
KSSQSVLFESRNKNSVA	WASTRES	QQYTRLHLS	0.88 1.22 0.85	0 of 9
LSSQSVLYESRNKNSVA	WASTRES	QPYHQLPLS	n.d. n.d. n.d.	0 of 9
KSSNSVLYESRNKNAVA	WASTRES	QQSHRLPLS	1.30 1.41 1.43	2 of 9 (4.63)
KFSQSVLYESRNKNSVA	WASTRPS	QQYNRLPLS	1.21 1.29 1.43	1 of 9 (3.71)
KSSQHVLQNSRNKNSVA	WASTRES	QQYHRLPLS	0.35 0.82 0.69	1 of 9 (3.76)
KSSQSVLYESRNHNLVM	WASTRES	QQYHRLPLS	n.d. n.d. n.d.	0 of 9
KSSWSVLYESWSKNSVA	WASTRES	QQYHRLPLS	n.d. n.d. n.d.	0 of 9
KSSQSVLYESRNKWNVA	WASTRES	QQYHRLPFS	1.68 2.04 1.82	1 of 9 (3.84)
KSSQSVLYESRCKNSVA	WASTRES	QGYNRLPLS	n.d. n.d. n.d.	4 of 9 (4.10)
KSSQSVLFESRNKNMVA	WASTRES	QQYDRLPLS	2.62 2.40 3.36	3 of 9 (3.52)
KSSQSVLYEMRNKNSVA	WFSTRES	QQYHRLPHS	n.d. 4.33 n.d.	0 of 9
KSSQSVLYESRSKNSVA	WASIRES	QQYHRLPLH	1.18 2.28 1.58	0 of 9
KSSQSVLYESYNMNSVA	WASTRES	QQYLRLPLS	1.36 1.53 1.80	2 of 9 (4.53)
GSSQSVLYESRNKNHVA	WASTRES	HQYHRLPLS	n.d. n.d. 2.99	3 of 9 (4.14)
KSSQSVLYEYRQKNSVA	WASTRES	QQYHALPLS	3.54 3.73 n.d.	1 of 9 (4.60)
KSSQSVMYESCNKNSVA	WASTRES	QQYHRLPLE	1.51 1.75 1.87	0 of 9
KSSQSVPYESRNKNSVA	WASLRES	QQYHALPLS	1.59 1.50 1.60	1 of 9 (3.71)
KSSQSVVYESRNKNGVA	WASTRES	QDYHRLPLS	1.20 1.23 1.82	0 of 9
KSNQSVLYESRNKNSVK	WAPTRES	QQYHRLPLS	n.d. n.d. n.d.	3 of 9 (3.39)
KSSQSVLYESQNKNSIA	WASTRES	YQYHRLPLS	n.d. n.d. n.d.	1 of 9 (3.23)
KSSQMVLYESRNKNSVA	WASTRQP	QQYHRLPLS	1.26 1.32 1.56	0 of 9
KSSQSVLYESRAKNSVA	WASTCES	QQYHVLPLS	4.40 n.d. n.d.	0 of 9
KRSQSVLYEMRNKNWVA	WASTRES	QQYHRLPLS	n.d. 2.99 n.d.	1 of 9 (3.61)
KSSQCVLYESRNKNSVA	WASTRES	RQYARLPLS	2.22 2.22 2.78	1 of 9 (3.90)
KSSQSVLKESRNMNSVA	WASTRES	QMYHRLPLS	0.82 0.98 0.87	4 of 9 (4.98)
KSSQSVLYESRNVNSVA	WASPRES	VQYHRLPLS	n.d. n.d. n.d.	0 of 9
KSSQSVLYKSRNKNSVA	WASTRES	QCYHRLPLS	2.20 2.22 2.56	1 of 9 (3.26)
KSSQSVLYFSRNKNSVA	WASTNES	QQYHRLPLN	n.d. n.d. n.d.	1 of 9 (3.86)
KSSQSVLYESRNKNSVA	WLSTRES	QQHHRPPLS	4.09 n.d. n.d.	5 of 9 (4.31)
KSCQSMLYESRNKNSVA	WASTRES	QQYHRLPLS	1.95 2.78 2.14	0 of 9
KSSISKLYESHNKNSVA	WASTRES	QQYHRLPLS	0.96 1.08 1.03	1 of 9 (4.41)
PSSQSVLYESRNKNSVA	WASTREA	QQYHALPLS	n.d. n.d. n.d.	0 of 9
KSSQSVLYESRNKNSVA	MASTRES	QQYHWLPLS	1.45 1.38 1.26	2 of 9 (4.31)
KSSQSVLAESRNKNSVA	WASTRES	QQYTRLPLS	0.62 0.78 0.79	3 of 9 (3.90)
KSSQSVLYERRNKNSVA	WSSTRES	QQYHRLPLS	2.33 n.d. 2.33	0 of 9

4 of these entries, quoted again:

CDR-L1	CDR-L2	CDR-L3	log10 Kd, replicates	empty controls
TSSQSVLYESRNKNSVA	WASTRES	QQYSRLPLV	2.10 2.78 2.34	0 of 9
KSSQSVLYEMRNKNSVA	WFSTRES	QQYHRLPHS	n.d. 4.33 n.d.	0 of 9
KSSQSVLYESVNKNSVA	WASTRES	YQYHRLPCS	0.37 0.59 0.55	2 of 9 (5.39)
KSSQSVLYESQNKNSIA	WASTRES	YQYHRLPLS	n.d. n.d. n.d.	1 of 9 (3.23)

Three control strains display no target. For library AAYL50, 18% of the pairings with them gave a signal, with a median of 4.19 and one signal in twenty below 2.99, so weak values seen in few replicates may be background. Also given: how often the same scFv was detected with the empty control strains, with their mean in brackets. For reference, the parent read 0.65 as the reference entry and 1.68 as a member of this library.